Measured values reported in patent US20030170250A1, “Local delivery of long lasting therapeutic agents” (priority 1998, published 2003).
Read-outs that look alike come from different tables or passages of the source.

Columns and labels:
[1] = test system: damaged rabbit carotid arteries; conditions: 100 μM, artery harvested immediately (FIG. 1)
[2] = test system: damaged rabbit carotid arteries

[^3H]-NHS-propionate
association efficiency ([1]; 30 seconds of incubation): 2.55%
association efficiency ([1]; 3 min incubation): 5.5%
association efficiency ([1]; 30 min incubation): 6.5%
retention after three days based on residual radioactivity in the artery ([2]; 100 μM, 3 minute incubation, three days (FIG. 2)): 10.94%
retention efficiency, % of total amount incubated ([2]; 100 μM, 3 minutes incubation, 3 days (FIG. 3)): 0.6 % of total amount incubated
enhancement in retention, covalently versus non covalently bound propionate ([2]; 3 minutes incubation, 3 days (FIG. 3)): 12 fold
retention of the material 72 hours after injury ([2]; after restitution of blood flow, 72 hours (FIG. 2)): approximately 10%
